Results: publication PMC11272584 (Nature Metabolism, 2024)
Substitutions are numbered along the chain they refer to.

Protein sequences, listed by entry. Tags and fused reporters are not part of them. Residues count along the entry.
UniProt P48546, 22-466 R43G: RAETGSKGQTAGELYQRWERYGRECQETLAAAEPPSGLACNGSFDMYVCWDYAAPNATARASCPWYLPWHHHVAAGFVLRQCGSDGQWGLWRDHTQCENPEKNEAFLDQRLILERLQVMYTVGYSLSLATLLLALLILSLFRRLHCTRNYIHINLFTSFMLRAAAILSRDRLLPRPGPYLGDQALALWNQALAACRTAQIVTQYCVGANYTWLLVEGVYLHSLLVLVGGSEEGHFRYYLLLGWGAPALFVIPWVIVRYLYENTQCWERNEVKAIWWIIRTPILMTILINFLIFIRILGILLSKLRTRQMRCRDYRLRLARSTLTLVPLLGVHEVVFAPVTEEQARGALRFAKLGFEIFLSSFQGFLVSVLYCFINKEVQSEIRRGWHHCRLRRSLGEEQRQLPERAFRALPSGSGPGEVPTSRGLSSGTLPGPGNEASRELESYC
UniProt P48546, 22-466 R190Q: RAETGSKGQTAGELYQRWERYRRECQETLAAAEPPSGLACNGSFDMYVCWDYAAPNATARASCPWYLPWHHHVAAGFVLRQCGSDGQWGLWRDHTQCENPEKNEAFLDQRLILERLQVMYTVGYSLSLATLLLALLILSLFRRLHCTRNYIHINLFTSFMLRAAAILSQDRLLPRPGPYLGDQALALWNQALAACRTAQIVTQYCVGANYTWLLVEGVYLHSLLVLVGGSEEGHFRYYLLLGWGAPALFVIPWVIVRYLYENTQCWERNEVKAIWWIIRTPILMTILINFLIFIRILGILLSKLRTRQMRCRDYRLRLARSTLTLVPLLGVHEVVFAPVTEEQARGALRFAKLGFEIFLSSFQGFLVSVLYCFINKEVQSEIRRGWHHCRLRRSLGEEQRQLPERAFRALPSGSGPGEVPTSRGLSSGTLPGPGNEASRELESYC
UniProt P48546, 22-466 A185V: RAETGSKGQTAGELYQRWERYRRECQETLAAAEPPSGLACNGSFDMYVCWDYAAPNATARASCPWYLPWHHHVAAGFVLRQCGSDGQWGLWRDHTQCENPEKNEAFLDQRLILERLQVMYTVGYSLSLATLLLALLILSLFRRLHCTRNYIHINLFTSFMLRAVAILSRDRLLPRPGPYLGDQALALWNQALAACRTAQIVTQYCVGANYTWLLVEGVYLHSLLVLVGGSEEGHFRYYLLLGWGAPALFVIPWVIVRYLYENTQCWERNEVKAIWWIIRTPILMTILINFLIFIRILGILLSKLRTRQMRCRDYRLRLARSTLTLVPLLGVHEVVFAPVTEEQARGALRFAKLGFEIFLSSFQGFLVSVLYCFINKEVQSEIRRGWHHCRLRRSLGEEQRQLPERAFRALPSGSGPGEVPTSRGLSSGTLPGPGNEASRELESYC
UniProt P48546, 22-466 A150T: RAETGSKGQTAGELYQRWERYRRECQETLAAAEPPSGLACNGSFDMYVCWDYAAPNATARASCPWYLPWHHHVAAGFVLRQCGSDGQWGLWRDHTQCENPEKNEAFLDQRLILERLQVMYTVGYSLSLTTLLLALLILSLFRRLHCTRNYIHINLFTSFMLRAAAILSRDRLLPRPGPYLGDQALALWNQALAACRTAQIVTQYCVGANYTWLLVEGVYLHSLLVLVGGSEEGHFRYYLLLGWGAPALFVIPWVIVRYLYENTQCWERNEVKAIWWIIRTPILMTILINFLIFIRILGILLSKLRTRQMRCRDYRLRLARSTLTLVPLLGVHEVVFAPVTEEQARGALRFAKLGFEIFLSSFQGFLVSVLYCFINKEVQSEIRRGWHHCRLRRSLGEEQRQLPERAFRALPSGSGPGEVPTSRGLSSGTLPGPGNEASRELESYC

Assays:
GIPR R38L = target: T1, GIPR R38L (Homo sapiens, UniProt P48546, R38L); settings: GIPR R38L (ECD), mean, n = 5, duplicate
T1 sequence (P48546 22-466 R38L): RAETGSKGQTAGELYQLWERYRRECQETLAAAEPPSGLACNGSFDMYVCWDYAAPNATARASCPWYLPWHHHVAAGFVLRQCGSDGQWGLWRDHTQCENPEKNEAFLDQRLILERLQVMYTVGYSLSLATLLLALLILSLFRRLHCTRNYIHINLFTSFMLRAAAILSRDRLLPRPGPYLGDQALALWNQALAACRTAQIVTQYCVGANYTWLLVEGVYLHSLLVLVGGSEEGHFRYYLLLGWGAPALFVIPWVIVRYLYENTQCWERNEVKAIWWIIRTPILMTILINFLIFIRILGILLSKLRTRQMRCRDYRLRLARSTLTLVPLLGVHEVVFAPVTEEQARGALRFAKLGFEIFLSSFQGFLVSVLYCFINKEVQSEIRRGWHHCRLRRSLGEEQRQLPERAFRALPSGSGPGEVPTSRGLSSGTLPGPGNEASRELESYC

GIPR R43G = target: T2, GIPR R43G (Homo sapiens, UniProt P48546, R43G); settings: GIPR R43G (ECD), mean, n = 5, duplicate
T2 sequence (P48546 22-466 R43G): T1 sequence (P48546 22-466 R38L) with L17R, R22G

GIPR R190Q = target: T3, GIPR R190Q (Homo sapiens, UniProt P48546, R190Q); settings: GIPR R190Q (2.67), mean, n = 6, duplicate
T3 sequence (P48546 22-466 R190Q): T1 sequence (P48546 22-466 R38L) with L17R, R169Q

GIPR A185V = target: T4, GIPR A185V (Homo sapiens, UniProt P48546, A185V); settings: GIPR A185V (2.62), mean, n = 5, duplicate
T4 sequence (P48546 22-466 A185V): T1 sequence (P48546 22-466 R38L) with L17R, A164V

GIPR A150T = target: T5, GIPR A150T (Homo sapiens, UniProt P48546, A150T); assay: cAMP accumulation; type: cell-based; set-up: host or cells: HEK293
T5 sequence (P48546 22-466 A150T): T1 sequence (P48546 22-466 R38L) with L17R, A129T

For “glucose-dependent insulinotropic polypeptide [GIP]”, the “logEC50 (Arrestin)” value (GIPR R38L; Hill slope 1.0) was -9.0, the “Arrestin (Emax)” value (GIPR R38L; normalized to WT GIPR) was 82 and the “logEC50 (Arrestin)” value (GIPR R43G; Hill slope 1.0) was -9.1. For the same substance, the “Arrestin (Emax)” value (GIPR R43G; normalized to WT GIPR) was 48, the “logEC50 (Arrestin)” value (GIPR R190Q; Hill slope 1.0) was -8.9 and the “Arrestin (Emax)” value (GIPR R190Q; normalized to WT GIPR) was 11. For the same substance, the “logEC50 (Arrestin)” value (GIPR A185V; Hill slope 1.0) was -9.0, the “Arrestin (Emax)” value (GIPR A185V; normalized to WT GIPR) was 89 and the “cAMP (Emax)” value (GIPR A150T; HEK293, GIP(1–42) 1 pM–100 nM, 30 min 37 °C, mean of n = 3) was 16 % of WT GIPR activity. For the same substance, the “logEC50 (cAMP)” value (GIPR A150T; HEK293, Hill slope 1.0, mean of n = 3) was -11.3.
